Values quoted from earlier work in US9854807B2, “Potentiation of fixed coppers and other pesticides containing copper and supplementing plant nutrition” (priority 2014, dated 2018).

Details: terms used by Richardson

Basic Copper(2) sulphate
solubility in water: insoluble in water
